# Assay results reported in patent publication US5556780A, “CDNAS encoding mouse and rat type-2 angiotensin II receptors and their expression in host cells” (The Board of Trustees for the Leland Stanford Junior …, priority 1993, dated 1996).
# Target: T1, rat AT2 receptor (Rattus norvegicus, UniProt P35351)
# T1 construct: pMRAT2, a rat AT2 receptor full-length cDNA cloned into the expression vector pcDNA I; expressed in transfected cells; host or cells: COS-7 (transient)
# T1 sequence (P35351 1-363): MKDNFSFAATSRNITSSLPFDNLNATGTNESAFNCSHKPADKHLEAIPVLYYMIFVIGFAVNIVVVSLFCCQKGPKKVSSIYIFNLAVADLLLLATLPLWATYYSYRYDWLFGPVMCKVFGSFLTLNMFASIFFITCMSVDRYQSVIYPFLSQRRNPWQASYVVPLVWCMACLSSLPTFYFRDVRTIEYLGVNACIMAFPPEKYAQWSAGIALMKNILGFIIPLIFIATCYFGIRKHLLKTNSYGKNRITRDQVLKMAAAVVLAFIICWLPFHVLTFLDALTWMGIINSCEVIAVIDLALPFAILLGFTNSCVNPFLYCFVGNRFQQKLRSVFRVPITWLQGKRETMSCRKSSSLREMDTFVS
# Test: Radioligand binding / displacement of 125I-CGP42112A on membranes of pMRAT2-transfected COS-7 cells
# Protocol: cDNA prepared from size-fractionated (>1 kb) poly(A)^+ RNA (Sprague-Dawley whole rat fetus, 18 days postcoitum) was ligated into an expression vector pcDNAI (Invitrogen), and amplified in 900 pools of 1,000 clones. […] Sequencing of both strands of clone pMRAT2 was done by the dideoxy chain termination method with Sequenase (USB).
# 2 h after incubation at room temperature, bound and free ligands were separated with GF/C filters (Whatman). […] Each experiment was carried out at least twice in duplicate, and the results shown here represent one experiment.
substance,measurement,setting,value
Ang II: Angiotensin II is an octapeptide hormone (DRVYIHPF),order of inhibition potency (competition profiles),"displacement of 125I-CGP42112A, 150 pM radioligand","[Sar^1,Ile^8 ]-Ang II=CGP42112A≥Ang II>PD123319^10,15 >Ang I"
same,increase of binding affinity by DTT,with DTT,50-100%
